Drawing on PubChem BioAssay AID463165 (Johns Hopkins Ion Channel Center, 2010), this text covers outcome for 24 molecules.

Sequences of proteins named here, by UniProt entry; tags and fusion partners are left off.
UniProt P49798, whole entry: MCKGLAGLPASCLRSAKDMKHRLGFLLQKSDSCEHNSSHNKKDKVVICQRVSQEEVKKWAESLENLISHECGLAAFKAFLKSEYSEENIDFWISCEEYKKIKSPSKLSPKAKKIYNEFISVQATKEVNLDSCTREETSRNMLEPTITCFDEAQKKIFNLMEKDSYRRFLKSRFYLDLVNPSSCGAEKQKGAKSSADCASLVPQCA

Only a part is listed here, and it is no random draw. Some results for these compounds are left out of this collection, so the calls shown say nothing about other tests. Active and inactive are the calls of the source.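 Rule for the calls: active = B-score, a plate-corrected calcium signal, over three deviations above library mean, with baseline fluorescence within five deviations of library mean; inactive = the rest.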

The target in this assay is Regulator of G-protein signaling 4 (Homo sapiens) (UniProt P49798). The assay is described as follows: RGS4 inhibitors, primary screen, cell-based, HEK293 M3R inducible RGS4, calcium flux (AID 463165).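 Note: RGS4 expression induced by doxycycline in cells with stable M3 receptor.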 The following applies: Fluo-4 calcium flux, at 10 µM, triggered by carbachol at its EC20.
In the case of `CC(C)Oc1ccc(C(=O)NCC2(N(C)C)CCCCC2)cc1`, the outcome was inactive.

As to `CN(C)c1cccc(C(=O)NCC2(N(C)C)CCCCC2)c1`, the outcome was inactive.

`COc1ccc(Br)c(C(=O)NCC2(N3CCCCC3)CCCCC2)c1`: the result was inactive.

Regarding `O=C(OC1CN2CCC1CC2)C(CO)(c1ccccc1)c1ccccc1` (centres undefined), the result was inactive.

On to `O=C(NCC1(N2CCCCC2)CCCCC1)c1cccc(Cl)c1`, for which the result was inactive.

For the molecule `COc1cccc(C(=O)NCC2(N3CCCCC3)CCCCC2)c1`, the outcome was inactive.

Consider `COc1ccc(Cl)cc1C(=O)NCC1(N(C)C)CCCCC1`, for which the result was inactive.

For the molecule `COc1cc(C(=O)NCC2(N(C)C)CCCCC2)c([N+](=O)[O-])cc1OC`, the result was inactive.

For `CN(C)C1(CNC(=O)c2ccc(Br)cc2)CCCCC1`, the result was inactive.

Regarding `COc1ccc(C(=O)NCC2(N(C)C)CCCCC2)cc1`, the result was inactive.

Consider `CCN1CCCC(OC(=O)C2(O)c3ccccc3C=Cc3ccccc32)C1` (centres undefined), for which the outcome was inactive.

`Cc1cc(C(=O)NCC2(N3CCCCC3)CCCCC2)ccc1[N+](=O)[O-]`: the result was inactive.

Regarding `O=C(NCC1(N2CCCCC2)CCCCC1)c1cccc(Br)c1`, the outcome was inactive.

Consider `C=CCN1CCN(CCOC(=O)C(O)(c2ccccc2)c2ccccc2)CC1`, for which the outcome was inactive.

Consider `O=C(NCC1(N2CCCCC2)CCCCC1)c1cc(F)c(F)cc1Cl`, for which the outcome was inactive.

Regarding `Cc1ccccc1C(=O)NCC1(N2CCCCC2)CCCCC1`, the outcome was inactive.

`CN(C)c1ccc(C(=O)NCC2(N(C)C)CCCCC2)cc1`: the outcome was inactive.

Consider `CN(C)C1CCCC1OC(=O)C(O)(c1ccccc1)c1ccccc1` (centres undefined), for which the outcome was inactive.

Consider `Cc1ccc(C(=O)NCC2(N3CCCCC3)CCCCC2)cc1`, for which the outcome was inactive.

As for `CCN(CC)CC(C)C(C)OC(=O)C(O)(c1ccccc1)c1ccccc1` (centres undefined), the outcome was inactive.

Consider `COc1cc(SC)ccc1C(=O)NCC1(N(C)C)CCCCC1`, for which the outcome was inactive.

As for `CC(C)N1C(=O)CC2(CCN(CCOC(=O)C(O)(c3ccccc3)c3ccccc3)CC2)C1=O`, the result was inactive.

Consider `CN1[C@@H]2CC[C@H]1CC(OC(=O)C(O)(c1ccccc1)c1ccccc1)C2` (some centres undefined), for which the outcome was inactive.

For `O=C(NCC1(N2CCCCC2)CCCCC1)c1cc([N+](=O)[O-])ccc1Cl`, the outcome was inactive.
